This is an account of results in DBAASP.

What all share (assay): ≥ marks a high value that may be exact or a test limit, other limits are often not marked, values filed in µg/mL are converted to µM
Assay [1] deals with Pseudomonas syringae pv. syringae EPS 94.
Assay [2] concerns Xanthomonas campestris pv. Vesicatoria 2133-2.
Assay [3] deals with Erwinia amylovora PMV 6076.

Values after ≈ are worked out from the molar mass of the structure shown.

Take `CC[C@H](C)[C@H](NC(=O)[C@H](CC(C)C)NC(=O)[C@H](C)NC(=O)[C@@H]1CCCN1C(=O)[C@H](CC(C)C)NC(=O)CNC(=O)[C@@H](NC(=O)[C@@H](NC(=O)[C@H](CC(C)C)NC(=O)[C@H](Cc1ccc(O)cc1)NC(=O)[C@H](CCCCN)NC(=O)[C@H](CC(C)C)NC(=O)[C@@H](NC(=O)[C@H](CCCCN)NC(=O)[C@H](CCCCN)NC(=O)[C@H](Cc1ccccc1)NC(=O)[C@H](CC(C)C)NC(=O)[C@H](CCCCN)NC(=O)[C@@H](N)CCCCN)[C@@H](C)CC)[C@@H](C)O)[C@@H](C)O)C(=O)N[C@@H](CO)C(=O)N[C@@H](Cc1c[nH]c2ccccc12)C(=O)O` [KKLFKKILKYLTTGLPALISW]: the results for the MIC in assay [1], in assay [2] and in assay [3] were 3.54 µM (≈ 8.7 µg/mL), 1.77 µM (≈ 4.35 µg/mL) and 3.54 µM (≈ 8.7 µg/mL), respectively.

By MIC is commonly meant the smallest concentration in the dilution series that meets the test's criterion for growth inhibition. Read a low MIC as a more susceptible organism.
